Data taken from PubChem BioAssay (NCI).
The list shows a part of the results, in another mix than the full data.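 96-well plates, one dose, 48 hours. Percent growth reported; active if below 10.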 Activity calls are given as the source filed them.

Experiments:
Assay in all cases: NCI-60 one-dose screen, 48 h (100 = growth as untreated, 0 = no growth, -100 = all killed)
HCT-15 colon = conditions: 10 µM unless noted
HT29 colon = conditions: 10 µM unless noted
SNB-75 CNS = conditions: 10 µM unless noted
SNB-19 CNS = conditions: 10 µM unless noted
U251 CNS = conditions: 10 µM unless noted
PC-3 prostate = conditions: 10 µM unless noted
SK-MEL-5 melanoma = conditions: 10 µM unless noted
UACC-62 melanoma = conditions: 10 µM unless noted
LOX IMVI melanoma = conditions: 10 µM
SK-MEL-28 melanoma = conditions: 10 µM unless noted
SK-MEL-2 melanoma = conditions: 10 µM unless noted
EKVX NSCLC = conditions: 10 µM unless noted
SN12C renal = conditions: 10 µM unless noted
UO-31 renal = conditions: 10 µM unless noted
TK-10 renal = conditions: 10 µM unless noted
ACHN renal = conditions: 10 µM unless noted
CAKI-1 renal = conditions: 10 µM unless noted
A498 renal = conditions: 10 µM unless noted
HL-60(TB) leukemia = conditions: 10 µM unless noted
CCRF-CEM leukemia = conditions: 10 µM unless noted

Measured: growth

Cc1cccc(Nc2c([N+](=O)[O-])cc([N+](=O)[O-])cc2[N+](=O)[O-])c1
inactive: HCT-15 colon 80.1% | HT29 colon 76.1% | SNB-75 CNS 86.6% | SNB-19 CNS 103% | U251 CNS 87.6% | PC-3 prostate 77.2% | SK-MEL-5 melanoma 93.8% | UACC-62 melanoma 71.5% | LOX IMVI melanoma 70.6% | SK-MEL-28 melanoma 107% | SK-MEL-2 melanoma 105% | EKVX NSCLC 88.4% | SN12C renal 95.3% | UO-31 renal 67.8% | TK-10 renal 116% | ACHN renal 86.1% | CAKI-1 renal 89.5% | A498 renal 86.1% | HL-60(TB) leukemia 91.7% | CCRF-CEM leukemia 72.6%

COC(=O)C1(C)COP(=O)(Nc2ccccc2)OC1 (stereo not given)
inactive: HCT-15 colon 104% | HT29 colon 91.9% | SNB-75 CNS 108% | SNB-19 CNS 96.1% | U251 CNS 101% | PC-3 prostate 116% | SK-MEL-5 melanoma 106% | UACC-62 melanoma 95.8% | LOX IMVI melanoma 94.5% | SK-MEL-28 melanoma 123% | SK-MEL-2 melanoma 96.3% | EKVX NSCLC 102% | SN12C renal 98.4% | UO-31 renal 78.3% | TK-10 renal 98.1% | ACHN renal 105% | CAKI-1 renal 103% | A498 renal 104% | HL-60(TB) leukemia 89.1% | CCRF-CEM leukemia 85.9%

CCOC(=O)CCNCCSP(=O)(O)O
inactive: HCT-15 colon 103% | HT29 colon 104% | SNB-75 CNS 139% | SNB-19 CNS 99.2% | U251 CNS 104% | PC-3 prostate 104% | SK-MEL-5 melanoma 99.8% | UACC-62 melanoma 98.9% | LOX IMVI melanoma 92.2% | SK-MEL-28 melanoma 109% | SK-MEL-2 melanoma 118% | EKVX NSCLC 94.4% | SN12C renal 108% | UO-31 renal 91% | TK-10 renal 101% | ACHN renal 108% | CAKI-1 renal 104% | A498 renal 79.2% | HL-60(TB) leukemia 169% | CCRF-CEM leukemia 107%

O=[N+]([O-])c1ccc(Nc2ccc(Oc3ccc([N+](=O)[O-])cc3[N+](=O)[O-])cc2)c([N+](=O)[O-])c1
inactive: HCT-15 colon 78.2% | HT29 colon 91.7% | SNB-75 CNS 42.8% | SNB-19 CNS 96.8% | U251 CNS 78% | PC-3 prostate 81.7% | SK-MEL-5 melanoma 75.4% | UACC-62 melanoma 56% | LOX IMVI melanoma 55.9% | SK-MEL-28 melanoma 118% | SK-MEL-2 melanoma 87.5% | EKVX NSCLC 79.5% | SN12C renal 76.3% | UO-31 renal 46.9% | TK-10 renal 78% | ACHN renal 82.4% | CAKI-1 renal 71.3% | A498 renal 97.6% | HL-60(TB) leukemia 13.8% | CCRF-CEM leukemia 65.7%

O=P(O)(NCCCO)N(CCCl)CCCl
inactive: HCT-15 colon 95.5% | HT29 colon 110% | SNB-75 CNS 69.9% | SNB-19 CNS 92.1% | U251 CNS 87.8% | PC-3 prostate 120% | SK-MEL-5 melanoma 106% | UACC-62 melanoma 95.4% | LOX IMVI melanoma 103% | SK-MEL-28 melanoma 116% | SK-MEL-2 melanoma 86.3% | EKVX NSCLC 95.2% | SN12C renal 98.5% | UO-31 renal 80% | TK-10 renal 97.9% | ACHN renal 97.1% | CAKI-1 renal 97.5% | A498 renal 83.5% | HL-60(TB) leukemia 92.5% | CCRF-CEM leukemia 108%

ClCCN1c2ccccc2Sc2ccccc21
inactive: HCT-15 colon 95.1% | HT29 colon 103% | SNB-75 CNS 112% | SNB-19 CNS 99.6% | U251 CNS 100% | PC-3 prostate 94.4% | SK-MEL-5 melanoma 99% | UACC-62 melanoma 98.5% | LOX IMVI melanoma 103% | SK-MEL-28 melanoma 114% | SK-MEL-2 melanoma 97.9% | EKVX NSCLC 96.4% | SN12C renal 111% | UO-31 renal 92.8% | TK-10 renal 102% | ACHN renal 108% | CAKI-1 renal 85.9% | A498 renal 103% | HL-60(TB) leukemia 107% | CCRF-CEM leukemia 105%

NC(=O)c1[nH]cnc1/N=N\N(CCCl)CCCl
inactive: HCT-15 colon 145% | HT29 colon 108% | SNB-75 CNS 78.9% | SNB-19 CNS 106% | U251 CNS 119% | PC-3 prostate 106% | SK-MEL-5 melanoma 114% | UACC-62 melanoma 101% | LOX IMVI melanoma 111% | SK-MEL-28 melanoma 125% | SK-MEL-2 melanoma 89.6% | EKVX NSCLC 167% | SN12C renal 115% | UO-31 renal 81.7% | TK-10 renal 137% | ACHN renal 128% | CAKI-1 renal 121% | A498 renal 117% | HL-60(TB) leukemia 113% | CCRF-CEM leukemia 98.3%

COC(=O)C1(C)COP(=O)(N2CCCCCC2)OC1 (stereo not given)
inactive: HCT-15 colon 104% | HT29 colon 98.1% | SNB-75 CNS 101% | SNB-19 CNS 96.8% | U251 CNS 103% | PC-3 prostate 108% | SK-MEL-5 melanoma 105% | UACC-62 melanoma 94.6% | LOX IMVI melanoma 96.9% | SK-MEL-28 melanoma 114% | SK-MEL-2 melanoma 95.7% | EKVX NSCLC 102% | SN12C renal 94.1% | UO-31 renal 82.4% | TK-10 renal 97.1% | ACHN renal 108% | CAKI-1 renal 101% | A498 renal 104% | HL-60(TB) leukemia 95% | CCRF-CEM leukemia 103%
